According to ChEMBL document CHEMBL5038647, “Elastase Inhibitor Cyclotheonellazole A: Total Synthesis and In Vivo Biological Evaluation for Acute Lung Injury” (J Med Chem, 2022):

Target: T1, Neutrophil elastase (Homo sapiens, UniProt P08246)
T1 sequence (P08246 whole entry): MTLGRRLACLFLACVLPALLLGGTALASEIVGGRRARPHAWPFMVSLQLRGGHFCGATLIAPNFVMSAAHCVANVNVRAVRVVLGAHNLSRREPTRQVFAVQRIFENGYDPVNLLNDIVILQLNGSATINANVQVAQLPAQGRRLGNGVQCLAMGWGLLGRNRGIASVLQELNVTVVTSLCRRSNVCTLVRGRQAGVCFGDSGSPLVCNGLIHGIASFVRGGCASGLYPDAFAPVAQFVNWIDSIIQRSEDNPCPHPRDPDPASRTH
Experiment: Inhibition of human neutrophil elastase incubated for 40 mins in presence of Boc-Gln-Ala-Arg-AMC by fluorescence microtiter plate method
Assay type: cell-based

IC50: 704 nM
Compound: CC(C)(C)C(=O)Oc1ccc(S(=O)(=O)Nc2ccccc2C(=O)NCC(=O)O)cc1 [SIVELESTAT]
